Sequences of proteins named here, by UniProt entry; tags and fusion partners are left off. A change or cut given only in a name is not applied to a line headed by its entry.
UniProt P41145: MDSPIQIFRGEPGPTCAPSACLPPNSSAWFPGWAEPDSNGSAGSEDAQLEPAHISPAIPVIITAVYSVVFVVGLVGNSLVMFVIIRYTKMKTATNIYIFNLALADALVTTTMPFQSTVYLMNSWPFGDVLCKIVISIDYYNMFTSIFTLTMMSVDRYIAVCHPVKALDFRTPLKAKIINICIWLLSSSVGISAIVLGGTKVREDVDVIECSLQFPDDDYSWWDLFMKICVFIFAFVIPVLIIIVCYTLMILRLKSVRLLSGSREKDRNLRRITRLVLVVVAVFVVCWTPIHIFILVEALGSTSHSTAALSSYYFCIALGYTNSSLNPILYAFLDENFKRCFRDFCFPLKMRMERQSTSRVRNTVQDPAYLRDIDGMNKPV

In patent US6026817A, “Method of treating the syndrome of coronary heart disease risk factors in humans” (priority 1998, dated 2000):

What was measured:
κ opioid receptor = κ opioid receptor (Homo sapiens, UniProt P41145); experiment: biochemical; assay type: binding; conditions: prototype ligand EKC
From the text: (§1) For each receptor there is a prototype ligand. […] For the μ receptor the prototype ligand is DHM (dihydromorphine). For the δ receptor, the prototype ligand is DADLE (D-Ala+D-Leu-Enkephalin), and for the κ receptor, the prototype ligand is EKC (ethylketocyclazocine).

δ opioid receptor = δ opioid receptor (Homo sapiens, UniProt P41143); experiment: Receptor binding, displacement of prototype ligand DADLE
From the text: as §1

Work on `C=C1CC[C@@]2(O)[C@H]3Cc4ccc(O)c5c4[C@@]2(CCN3CC2CC2)[C@H]1O5` [Nalmefene, 6-desoxy-6-methylene-naltrexone] yielded an IC50 (κ opioid receptor) of 5 nM and an IC50 (δ opioid receptor) of 6 nM.
